Experiments:
cdc2/cyclinB = cdc2/cyclinB (UniProt P06493); assay: cdc2/cyclinB kinase inhibition; assay type: biochemical; conditions: read-out: IC50 cdc2/cyclinB
erk1 = erk1 (Homo sapiens, UniProt P27361); assay: erk1 kinase inhibition; assay type: biochemical; conditions: read-out: IC50 (additional kinases) erk1
GSK-3 = GSK-3 (Rattus norvegicus, UniProt P18266); conditions: read-out: IC50 (additional kinases) GSK-3

Amino acid sequences for entries named in this document (tags omitted).
UniProt P06493, whole entry, looked up: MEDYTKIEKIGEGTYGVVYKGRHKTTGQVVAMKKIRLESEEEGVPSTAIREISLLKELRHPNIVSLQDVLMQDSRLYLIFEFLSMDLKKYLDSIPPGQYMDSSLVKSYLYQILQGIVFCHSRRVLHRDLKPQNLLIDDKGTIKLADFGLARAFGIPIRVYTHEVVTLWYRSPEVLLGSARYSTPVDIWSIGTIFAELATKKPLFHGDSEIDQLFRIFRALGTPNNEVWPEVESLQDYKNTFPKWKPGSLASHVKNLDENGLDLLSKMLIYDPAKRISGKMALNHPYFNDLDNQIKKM
UniProt P27361, whole entry: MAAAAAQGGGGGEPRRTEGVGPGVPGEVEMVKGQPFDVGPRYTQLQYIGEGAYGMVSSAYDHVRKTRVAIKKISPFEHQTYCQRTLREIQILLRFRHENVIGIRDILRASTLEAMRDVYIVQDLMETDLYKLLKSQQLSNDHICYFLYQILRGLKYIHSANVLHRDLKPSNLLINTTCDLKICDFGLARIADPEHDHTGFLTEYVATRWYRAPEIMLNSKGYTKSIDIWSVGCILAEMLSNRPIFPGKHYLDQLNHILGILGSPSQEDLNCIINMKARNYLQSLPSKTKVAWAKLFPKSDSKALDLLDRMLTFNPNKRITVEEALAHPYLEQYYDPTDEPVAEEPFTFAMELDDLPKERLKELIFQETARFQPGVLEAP
UniProt P18266, whole entry: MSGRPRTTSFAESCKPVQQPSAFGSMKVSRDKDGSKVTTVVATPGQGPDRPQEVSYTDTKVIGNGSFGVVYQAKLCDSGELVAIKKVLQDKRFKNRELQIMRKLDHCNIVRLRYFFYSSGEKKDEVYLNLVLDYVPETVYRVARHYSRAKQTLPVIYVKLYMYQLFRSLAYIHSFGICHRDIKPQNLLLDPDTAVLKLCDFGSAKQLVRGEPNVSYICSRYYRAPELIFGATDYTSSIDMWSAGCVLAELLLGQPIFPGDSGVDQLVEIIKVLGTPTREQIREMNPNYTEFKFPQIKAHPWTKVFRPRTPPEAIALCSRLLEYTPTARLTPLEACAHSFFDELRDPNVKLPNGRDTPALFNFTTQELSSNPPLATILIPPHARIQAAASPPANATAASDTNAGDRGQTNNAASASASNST

COc1ccc(CNc2nc(NCCCNC(=O)[C@H]3CSC(=O)N3)nc3c2ncn3C(C)C)cc1
IC50 (cdc2/cyclinB): 330 nM
IC50 (erk1): 8 µM
IC50 (GSK-3): > 33 µM

Reference: US6803371B2
